Experimental data reported in PMC7150766 (Viruses, 2020).

Test system: splenocytes from CVB3-infected A/J mice
Assay: Proliferative response of splenocytes from CVB3-infected mice to VP1 epitopes
Format: cell-based
Conditions: day 21 post-infection, peptide 2 days, then 3[H] thymidine 16 h, p ≤ 0.0001 for VP1 681–700 and VP1 721–740, Figure 4a

With “VNTFVHESLADVQA [RNase 43–56, bovine ribonuclease (RNase) 43–56, irrelevant control peptide]” as the sequence, how does the “Proliferative response (in words)” value read?
Its value is “non-responsive”.
